Only a part is listed here, and it is no random draw. Activity calls are given as the source filed them.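 Rule for the calls: active = calcium signal cut by more than 3 SD below the full-agonist control yet still positive, in both repeats and the earlier primary screen; inactive = the rest.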

Chains of the proteins cited; added tags and fusions are not shown.
UniProt Q9QUQ5, whole entry: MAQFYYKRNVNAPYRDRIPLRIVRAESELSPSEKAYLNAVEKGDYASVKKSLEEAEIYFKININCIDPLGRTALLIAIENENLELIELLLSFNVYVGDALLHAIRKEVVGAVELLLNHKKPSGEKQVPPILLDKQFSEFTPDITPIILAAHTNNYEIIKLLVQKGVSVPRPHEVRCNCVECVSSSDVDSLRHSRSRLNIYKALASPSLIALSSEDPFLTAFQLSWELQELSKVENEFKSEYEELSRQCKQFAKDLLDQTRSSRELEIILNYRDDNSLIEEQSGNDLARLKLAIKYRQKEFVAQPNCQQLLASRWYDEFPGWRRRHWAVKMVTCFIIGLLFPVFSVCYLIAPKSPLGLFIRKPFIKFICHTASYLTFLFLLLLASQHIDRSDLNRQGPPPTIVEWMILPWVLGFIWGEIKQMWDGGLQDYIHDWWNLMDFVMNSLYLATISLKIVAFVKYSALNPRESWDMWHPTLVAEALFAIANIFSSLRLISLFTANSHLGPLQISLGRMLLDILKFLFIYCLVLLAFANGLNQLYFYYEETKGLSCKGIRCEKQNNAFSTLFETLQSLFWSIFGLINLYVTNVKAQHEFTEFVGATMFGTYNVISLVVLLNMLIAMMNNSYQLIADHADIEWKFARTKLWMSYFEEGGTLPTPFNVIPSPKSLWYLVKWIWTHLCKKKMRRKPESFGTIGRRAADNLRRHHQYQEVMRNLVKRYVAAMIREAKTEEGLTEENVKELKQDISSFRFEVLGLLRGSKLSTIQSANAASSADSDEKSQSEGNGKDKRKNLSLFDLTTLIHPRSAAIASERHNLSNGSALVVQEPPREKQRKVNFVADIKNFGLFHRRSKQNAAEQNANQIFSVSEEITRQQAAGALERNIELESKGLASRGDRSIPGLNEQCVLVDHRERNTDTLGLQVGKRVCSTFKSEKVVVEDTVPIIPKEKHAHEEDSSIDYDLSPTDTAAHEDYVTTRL

The test deals with Short transient receptor potential channel 4 (Mus musculus) (UniProt Q9QUQ5). As to the kind of experiment: blockers of DAMGO-evoked TRPC4 calcium flux – cell-based, Fluo4, HEK293 TRPC4beta/mu-opioid, confirmation (AID 2636). The following applies: at 10 µM; active compounds read high.
The term inhibition denotes the change of the read-out against control, counted positive when it falls. Consider `CCN(CC)CCCOC(=O)C(O)(c1ccccc1)c1ccccc1`, for which the inhibition result is “inactive”. For `CN(C)CCOC(=O)C(O)(c1ccccc1)C1CCCC1` (stereo not drawn), the inhibition is active: 68%. Turning to `CN(C)C1(CNC(=O)c2ccc(Cl)c(S(N)(=O)=O)c2)CCCCC1`, the inhibition result was “inactive”.

The values are drawn from PubChem BioAssay AID2636 (Johns Hopkins Ion Channel Center, 2010).
